One compound from publication PMC11208336 (Frontiers in Cellular and Infection Microbiology, 2024) can be followed below.

Molecules are shown by their SMILES.

One may read the Kd as the concentration at which binding is half-saturated. A lower Kd goes with higher affinity.

The target in test [1] is T1, HmuY^Pe (Porphyromonas endodontalis, UniProt C3JC46, H128A).
T1 construct: gene POREN0001_0444
Put plainly: biochemical.

The target in test [2] is T2, HmuY^Pe (Porphyromonas endodontalis, UniProt C3JC46).
T2 construct: gene POREN0001_0444
Put plainly: biochemical.

For `C=CC1=C(C)C2=Cc3c(C=C)c(C)c4[n]3[Fe]([Cl])[n]3c(c(C)c(CCC(=O)O)c3=CC3=NC(=C4)C(C)=C3CCC(=O)O)=CC1=N2` [Fe(III)heme], the Kd was 8.38 µM at HmuY^Pe [1] and 0.245 µM on HmuY^Pe [2].
